According to US9169279B2, “Crystallization method and bioavailability” (THAR PHARMACEUTICALS, INC., priority 2009, dated 2015):

Test: Rat PK study: zoledronic acid in plasma after IV, oral gavage or intraduodenal dosing (LC/MS/MS)

Average plasma concentration of 3 rats (ID (intraduodenal) 5 mg/kg zoledronic acid equivalent, PEG 400, Time 0.25 hour): 39.99 ng/mL
Average plasma concentration of 3 rats (ID (intraduodenal) 5 mg/kg zoledronic acid equivalent, PEG 400, Time 1 hour): 18.50 ng/mL
Average plasma concentration of 3 rats (ID (intraduodenal) 5 mg/kg zoledronic acid equivalent, PEG 400, Time 4 hour): 0.71 ng/mL
Average plasma concentration of 3 rats (ID (intraduodenal) 5 mg/kg zoledronic acid equivalent, PEG 400, Time 8 hour): 0.00 ng/mL
Average plasma concentration of 3 rats (ID (intraduodenal) 5 mg/kg zoledronic acid equivalent, PEG 400, Time 24 hour): 0.00 ng/mL
Average plasma concentration of 3 rats (PO 5 mg/kg zoledronic acid equivalent, PEG 400, Time 0.25 hour): 278.47 ng/mL
Average plasma concentration of 3 rats (PO 5 mg/kg zoledronic acid equivalent, PEG 400, Time 0.5 hour): 280.20 ng/mL
Average plasma concentration of 3 rats (PO 5 mg/kg zoledronic acid equivalent, PEG 400, Time 1 hour): 171.59 ng/mL
Average plasma concentration of 3 rats (PO 5 mg/kg zoledronic acid equivalent, PEG 400, Time 4 hour): 13.42 ng/mL
Average plasma concentration of 3 rats (PO 5 mg/kg zoledronic acid equivalent, PEG 400, Time 8 hour): 1.78 ng/mL
Average plasma concentration of 3 rats (PO 5 mg/kg zoledronic acid equivalent, PEG 400, Time 24 hour): 0.00 ng/mL
Substance: Zoledronic Acid, Sodium Zoledronic Salt, and Water Complex
